## Ab-14 heavy chain CDR variants: yeast mating affinities

Data: MIT Lincoln Laboratory AlphaSeq set, Engelhart et al. 2022, doi:10.1038/s41597-022-01779-4, as distributed in FLAb.

Antigen: PDVDLGDISGINAS, a 14-residue peptide of the SARS-CoV-2 spike HR2 region.

Parent: Ab-14, a human scFv built as VH, the linker GGGGSGGGGSGGGGS, VL. Only the CDRs of the heavy chain vary.
VH: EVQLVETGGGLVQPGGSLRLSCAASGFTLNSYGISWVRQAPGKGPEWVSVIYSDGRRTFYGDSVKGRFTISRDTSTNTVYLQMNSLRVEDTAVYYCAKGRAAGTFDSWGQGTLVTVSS
VL: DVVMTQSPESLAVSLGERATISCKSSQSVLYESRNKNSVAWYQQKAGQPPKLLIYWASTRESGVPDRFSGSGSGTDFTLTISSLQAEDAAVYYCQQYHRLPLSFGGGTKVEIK

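Phage display of a naive human antibody library on the peptide gave the parent. Variants in AAYL49 differ from the parent at up to three CDR positions; double and triple changes were sampled at random. The scFvs were displayed on barcoded MATa yeast, the peptide on MATalpha yeast. The frequency of each diploid, read from paired DNA barcodes, reflects how well the two displayed proteins bind. The ratio of observed to expected reads was calibrated, replicate by replicate, on BCL2-family standards whose Kd was known from biolayer interferometry. The assay was run in three technical replicates.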

The parent's heavy chain CDRs are GFTLNSYGIS, VIYSDGRRTFYGDSVK, GRAAGTFDS; each variant's own CDRs replace them letter for letter.
Values are log10 of the apparent Kd in nM; lower means stronger binding.
The mean shown is taken over the replicates in which the pair was detected.
An entry "no signal" has no value in the source: the pair was not observed among the diploids in any replicate. This suggests poor binding but is not conclusive.

CDR-H1,CDR-H2,CDR-H3,mean log10 Kd (nM),replicates with signal
GFTLNSYGIS,VIYSDGRRGFYGDSMK,ARAAGTFDS,no signal,0 of 3
GFTLNSYQIS,VIYSDGRRTFYGDSVK,GRAAGTFDM,no signal,0 of 3
GFALNSYGIS,VNYSDGRRTFYGDSVK,GRAAITFDS,no signal,0 of 3
GFTLNSYGIS,VAYSDGNRTFYGDSVK,GRAAGTFDT,1.96,3 of 3
GFTLNSYGIM,VIYSDGRRTFYADSVK,GRAAPTFDS,4.76,2 of 3
GFTLNSYGIS,VIYSDGRTTDYGDEVK,GRAAGTFDS,no signal,0 of 3
GFTLNSRGIS,VIYSDGFRTFYGDSVK,GIAAGTFDS,4.27,3 of 3
GFTLSSYGIS,VIYSDGRRTFYGNSVK,GRAAGTFDS,2.98,3 of 3
GFTLNSYGIS,QIYSDGRRTFYGDSVK,FRFAGTFDS,no signal,0 of 3
GFTLNPYGIS,VPYSDGRRTFYGDSVK,GRAAGTGDS,3.79,2 of 3
GFTLNSYGIS,VIYSDGRGTVYGDSVK,IRAAGTFDS,no signal,0 of 3
LFTLNSYGIS,EIYPDGRRTFYGDSVK,GRAAGTFDS,4.43,1 of 3
GFTLNSYGIS,VFYSDGRRTFYGDKVK,GRACGTFDS,4.12,1 of 3
GFTLNSYGRS,VIYSDGRRTFYKDSVK,GRWAGTFDS,1.94,3 of 3
GFTLNSYGIS,VCYSDGRRTFSGDSVG,GRAAGTFDS,no signal,0 of 3
GFTLNSYGIS,VSYSDIRRTFYGDSVV,GRAAGTFDS,4.32,2 of 3
GFTLNSYGVS,VIYNDGRRTFYGDSHK,GRAAGTFDS,no signal,0 of 3
GFTLNSYGIS,VIYSDGRRTFYGDSQK,GRAAMCFDS,no signal,0 of 3
GFTLNSYGIS,VIRSDGDRTFDGDSVK,GRAAGTFDS,5.36,1 of 3
GFTLNSYGIS,VIYRDGRRTFYGFSPK,GRAAGTFDS,no signal,0 of 3
GFTRNSYGIS,VHYSDGRRTFYPDSVK,GRAAGTFDS,4.08,1 of 3
GFTLNSTGIS,VIYSDGRQTFYGDSDK,GRAAGTFDS,4.13,2 of 3
GFTLNSYGIS,VTHSDGRRTFYGDSVK,GRAAGTFDD,3.65,1 of 3
GFTLNSVGIS,VYYSDGRRTFYGDSVK,GRAAHTFDS,no signal,0 of 3
GFTLNSYGIS,VIYSDGRRTWYGDSYK,GRAAGTVDS,no signal,0 of 3
GFTLNSYGII,VIYSDGRITFYGDSVK,GRAAGTDDS,no signal,0 of 3
GFTLNSYGIQ,VIYSWGRRTFYGDSVK,GRAAGEFDS,3.98,2 of 3
GFTLNSHGIS,VICSDGRRTFYGDSVD,GRAAGTFDS,3.60,1 of 3
GFTLNSYGIS,VIYCDGRRTFYGHSVK,ERAAGTFDS,no signal,0 of 3
GGTLNSYGIS,VTYSDGRRTFYGDSVI,GRAAGTFDS,no signal,0 of 3
GFTLNSYIIS,VIYSDGRRTFYGDSVK,GRAAITFDS,no signal,0 of 3
GFTLNSYGIS,VIYSDGRRTFYGDSVK,GDAMHTFDS,0.98,3 of 3
GFTLNSMGIS,VIYSDGRRTASGDSVK,GRAAGTFDS,no signal,0 of 3
GFTLNSYGIS,VIYSDGRRTFYGDNVK,GRAAGQWDS,no signal,0 of 3
GFTLNSYGIS,VIYSDGRRTFYCVSVK,GRAAGTFDR,3.67,1 of 3
GFTLNSYGIS,VICSDGRRTFYGDSVE,GRAAGTVDS,3.57,1 of 3
GFTDNSCGIS,VIYSDGRRTNYGDSVK,GRAAGTFDS,no signal,0 of 3
SFTLNSYGIS,VIYSDGRRTFYGDSVK,GTAAGTFDS,2.57,3 of 3
GFTLNMYGIS,VIWSAGRRTFYGDSVK,GRAAGTFDS,no signal,0 of 3
GFHLNSYGIS,VIYSDNSRTFYGDSVK,GRAAGTFDS,4.52,1 of 3
GFTTNSYGIS,VIYSDGRRTFYGDSVK,GRAATTFDS,3.71,3 of 3
GFTLNSYGIS,VIYSDGRRTFYGDSVK,GHAAGTFDI,0.71,3 of 3
GFTLYSYAIS,VIYSDGRRTFYGDSGK,GRAAGTFDS,no signal,0 of 3
GFTLNSYGIE,VIYSDGRRTFYGDSVG,GRFAGTFDS,5.24,1 of 3
GFTLNSYGIS,VIVSDGRATFYGDSVK,GRAAGTDDS,no signal,0 of 3
VFTLNSYGIS,VIYADGRRTFYGDSVK,GRADGTFDS,no signal,0 of 3
GFTLNSYGIS,VIYSDGRRTFMGDSVK,GRAAGTWDS,3.48,2 of 3
GFTTNSYGIS,VIYRDGRRTFYGHSVK,GRAAGTFDS,no signal,0 of 3
GFCLNSYGIS,VIYSDGRPTFYGDSVK,GRAAGTFDS,no signal,0 of 3
GFTQNSYGIS,VIYSDGRRTFYGDSVE,GRAAETFDS,4.69,1 of 3
GFTLNLYGIS,VIYSDGRFTFYGDSVK,GQAAGTFDS,5.08,2 of 3
GFTLNSYGIS,VIYSDGRRTFYGVWVK,GWAAGTFDS,no signal,0 of 3
GFTLNSPGIS,VIYSDGRRTFYGDSVK,GRAAPTPDS,no signal,0 of 3
GFTLNSYGIS,VIYSDGRRTMYGDSVK,GRAAGTFAV,1.14,3 of 3
GFTLNSYGLS,VIYSDGRRTFYGRSVK,GRAAGTFDS,5.15,1 of 3
GFTFNSYGIS,VIYSDGRRTFYGPSVK,GRCAGTFDS,no signal,0 of 3
GFTINSYGIS,VHYSDGRRLFYGDSVK,GRAAGTFDS,3.59,1 of 3
GFTLNSYGIS,VIYSDVRRTFFGDSVK,GRAAGTFCS,3.59,2 of 3
GFTLNSYGIS,VIYSCGRRTFFHDSVK,GRAAGTFDS,no signal,0 of 3
GFTANSYGIS,VIYSDGRRTFYGDTVK,GRAALTFDS,3.18,1 of 3
GFTLNSYGIS,VIYSDGGRDNYGDSVK,GRAAGTFDS,4.15,1 of 3
GFTLGSYGIS,VIMSDGRRTFYGDSVK,GRAAGTFDV,4.77,2 of 3
GFTLNSYGIS,VVYSDGRRTFYNDSVD,GRAAGTFDS,no signal,0 of 3
GFTLNSYGID,VIYSDGRRTFYGPSVK,GRAAGTFDS,no signal,0 of 3
GFTLNSYGIS,VIYSDGRRTFYGDSVK,QRAAGIFDS,no signal,0 of 3
GFTNNSYGIS,VIYHDGRRTFYGDSVK,ARAAGTFDS,no signal,0 of 3
GFTLNSDGIS,VIYSDGRRTFSGDSVF,GRAAGTFDS,4.02,1 of 3

As a blank, each scFv also met three strains without target: over library AAYL49, 15% of these pairings were detected, typically at 4.06 and seldom below 2.83.
For reference, the parent read 0.65 as the reference entry and 4.11 (one replicate of three) as a member of this library.